Experimental data taken from paper PMC10641813, “4-(3-Phenyl-4-(3,4,5-trimethoxybenzoyl)-1H-pyrrol-1-yl)benzenesulfonamide, a Novel Carbonic Anhydrase and Wnt/β-Catenin Signaling Pathway Dual-Targeting Inhibitor with Potent Activity against Multidrug Resistant Cancer Cells” (Journal of Medicinal Chemistry, 2023).

By UniProt entry, the sequences of proteins in these tests, tags left out. Where a name states a change or a piece, a line headed by the entry shows the natural chain unless it says otherwise.
UniProt P00915: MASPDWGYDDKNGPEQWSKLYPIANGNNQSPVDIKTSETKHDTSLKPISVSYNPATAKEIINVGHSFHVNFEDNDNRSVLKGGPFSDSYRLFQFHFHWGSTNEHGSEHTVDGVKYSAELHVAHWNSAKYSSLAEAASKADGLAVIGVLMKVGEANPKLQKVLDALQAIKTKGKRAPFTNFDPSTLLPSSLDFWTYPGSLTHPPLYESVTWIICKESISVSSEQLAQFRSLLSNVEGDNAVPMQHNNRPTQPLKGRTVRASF

Key:
hCA I = biological target: T1, hCA I (Homo sapiens, UniProt P00915); assay: Stopped flow CO2 hydrase assay, hCA I; type: biochemical; conditions: stopped flow technique, mean from three assays
T1 construct: made in house

hCA II = biological target: T2, hCA II (Homo sapiens, UniProt P00918); assay: Stopped flow CO2 hydrase assay, hCA II; type: biochemical; conditions: stopped flow technique, mean from three assays
T2 construct: made in house

4-(3-Benzoyl-1H-indol-1-yl)benzenesulfonamide [Compound 18]
Ki (hCA I): 328 nM
Ki (hCA II): < 50 nM and 41.7 nM

4-(3-Benzoyl-1H-pyrrol-1-yl)benzenesulfonamide [Compound 10]
Ki (hCA I): 73.1 nM
Ki (hCA II): 57.5 nM

4-(3-(3,4,5-trimethoxybenzoyl)-1H-pyrrol-1-yl)benzenesulfonamide [Compound 11]
Ki (hCA I): 95.6 nM

4-(3-Phenyl-4-(3,4,5-trimethoxybenzoyl)-1H-pyrrol-1-yl)benzenesulfonamide [Compound 15]
Ki (hCA I): 272 nM
Ki (hCA II): < 50 nM and 33.6 nM

4-(3-Benzoyl-4-phenyl-1H-pyrrol-1-yl)benzenesulfonamide [Compound 14]
Ki (hCA I): 209 nM
Ki (hCA II): 72.4 nM

“And” between values parts separate entries of the source, which are not always exact repeats. Equal values may be shown once.
